The record followed here is patent US6767890B1, “Peptides having anti-cancer and anti-inflammatory activity” (priority 1998, dated 2004).

By UniProt entry, the sequences of proteins in these tests, tags left out. Residues count along the entry.
UniProt P14780, 94-707: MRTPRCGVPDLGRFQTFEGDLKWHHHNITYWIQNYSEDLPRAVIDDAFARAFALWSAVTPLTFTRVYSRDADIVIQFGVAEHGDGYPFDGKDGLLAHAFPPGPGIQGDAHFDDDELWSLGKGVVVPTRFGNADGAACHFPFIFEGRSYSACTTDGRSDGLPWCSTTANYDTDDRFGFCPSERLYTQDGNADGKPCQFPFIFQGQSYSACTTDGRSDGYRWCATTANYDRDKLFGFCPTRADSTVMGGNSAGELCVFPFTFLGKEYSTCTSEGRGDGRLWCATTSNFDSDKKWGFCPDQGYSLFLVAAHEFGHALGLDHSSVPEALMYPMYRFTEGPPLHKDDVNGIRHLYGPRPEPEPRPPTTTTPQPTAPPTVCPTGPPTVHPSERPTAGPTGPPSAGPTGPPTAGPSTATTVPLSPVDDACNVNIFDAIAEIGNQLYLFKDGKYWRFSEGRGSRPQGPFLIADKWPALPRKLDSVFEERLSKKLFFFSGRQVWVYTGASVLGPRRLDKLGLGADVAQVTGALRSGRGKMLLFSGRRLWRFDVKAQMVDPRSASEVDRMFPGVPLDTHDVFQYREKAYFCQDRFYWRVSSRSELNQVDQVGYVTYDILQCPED

Series [1] deals with T1, PLA2, Pancreatic (Sus scrofa, UniProt P00592).
T1 construct: porcine; from tissue; host or cells: porcine pancreas
T1 sequence (P00592 23-146): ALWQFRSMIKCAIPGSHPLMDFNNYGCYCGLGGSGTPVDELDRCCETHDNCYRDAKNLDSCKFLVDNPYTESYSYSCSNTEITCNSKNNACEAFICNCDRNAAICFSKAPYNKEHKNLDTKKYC
Description: PLA2, Pancreatic enzyme assay. The settings on record: historical value; read-out: ^1IC, (IC50 of reference compound). The format is biochemical, porcine. The protocol: (§1) The peptide was further screened in vitro in a variety of enzyme and biochemical assays. Methods employed were adapted from the scientific literature to maximize reliability and reproducibility. The primary literature reference for each assay is listed in Table 11 opposite the results for each assay.
(§2) Unless otherwise indicated, the peptide was tested in duplicate at the concentrations indicated for each assay. Results presented in Table 10, “Results,” are the average of duplicate determinations, unless otherwise noted.
(§3) Reference compounds were tested concurrently at 5 concentrations as an integral part of each assay to ensure the validity of the results obtained.
(§4) Enzyme assays were performed under conditions described in Table 8, “Experimental Conditions.”. The commercial suppliers and catalog numbers of substrates employed in this study are given in Table 7, “Material Sources.” The name, commercial source, and catalog numbers of concurrent reference compounds (controls) employed in this study are given in Table 9, “Reference Compound Data.” The reaction catalyzed by each enzyme is listed in Table 8, “Experimental Conditions.”
(§5) Biochemical assay results are presented in Table 10, as the percent inhibition of specific binding or activity, and unless noted are the average of duplicate tubes tested at each concentration.

The target in series [2] is T2, Protease - Elastase (Homo sapiens, UniProt P08246).
T2 construct: neutrophils; endogenous in cells; host or cells: human neutrophils
T2 sequence (P08246 30-267): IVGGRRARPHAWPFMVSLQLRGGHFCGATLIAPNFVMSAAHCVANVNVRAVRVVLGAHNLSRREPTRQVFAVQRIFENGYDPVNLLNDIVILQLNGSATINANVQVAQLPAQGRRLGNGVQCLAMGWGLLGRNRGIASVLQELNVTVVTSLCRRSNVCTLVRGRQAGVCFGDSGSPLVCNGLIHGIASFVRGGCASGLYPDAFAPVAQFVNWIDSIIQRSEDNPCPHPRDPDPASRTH
Description: Protease - Elastase enzyme assay. The format is biochemical. The settings on record: historical value; read-out: ^1IC, (IC50 of reference compound). As for the experimental part: as §1, §2, §3, §4, §5

Series [3] has as its target T3, Collagenase IV (Homo sapiens, UniProt P14780).
T3 construct: human U937; endogenous in cells; host or cells: U937 cells
Description: Collagenase IV enzyme assay. The format is biochemical. The settings on record: historical value; read-out: ^1IC, (IC50 of reference compound). As for the experimental part: as §1, §2, §3, §4, §5

Series [4] concerns DNBS-induced distal colitis. Description: Inflammation, Inflammatory Bowel Disease (DNBS distal colitis). The series is classed as in vivo. The settings on record: rat, 30 mg/kg × 6 PO, died on day 7. As for the experimental part:
(§6) Peptide was prepared according to the methods set out in Example 1. The vehicle of distilled water was used for in vitro assays, working solution of peptide was added to the 10 ml tissue bath. For in vivo assay, distilled water and saline was used as vehicle in oral and intraperitoneal administration, respectively. Dosing volume was 20 ml/kg for mice or 10 ml/kg for rats. For topical route, peptide was dissolved in a vehicle of Acetone/Ethanol (1:1) and applied in a dosing volume 20 μl/ear.
Groups of 3 Sprague-Dawley derived male rats weighing 150±20 gms and fasted for 24 hours were used. Distal colitis was induced by intra-colonic instillation of DNBS (2,4-dinitrobenzene sulfonic acid, 30 mg in 0.5 ml ethanol 30%) after which air (2 ml) was gently injected through the cannula to ensure that the solution remains in the colon. Test substance was administered PO (30 mg/kg) at 24 and 2 hours before DNBS instillation. Then, the animals received test compound every 24 hours for 5 consecutive days. The control group was given vehicle alone as compound dosing pattern. The animals were sacrificed 24 hours after the final dose of test compound administration and each colon was removed and weighed. Colon-to-body weight ratio was obtained from the percentage of the comparison between the animal colon weight and body weight on the 8th day. […]

Series [5] has as its system Sarcoma 180 tumor. Description: Anti-Cancer Activity Against Mouse Tumor Sarcoma 180. The series is classed as in vivo. The settings on record: mouse body weight gain, 10 mg/kg, I.P. injections or gavage on days 1-5, 6 mice. As for the experimental part:
The peptide was assayed in a mouse model of the tumor Sarcoma 180. This model has been used extensively as indicative of neovascularization in mammals inasmuch as the tumor so implanted is quickly vascularizing.
Experimental Design: All mice were weighed at test initiation and test termination. The animals were divided into three groups. The Sarcoma 180 tumor was made up from a passage mouse to furnish […] per 0.1 mL inoculum. The cells were injected into the left leg hamstring muscle mass. The was delivered to the mice by I.P. injections, or gavage on days 1-5.
At the termination of the experiments, the mice were weighed and the left rear leg was amputated at the thigh. The skin was removed from the leg to expose the site at which the tumor was located. […].

Series [6] relates to oxazolone-induced ear swelling. Nature of the series: Immune Suppression, Cellular (oxazolone ear thickness). The series is classed as in vivo. The settings on record: mouse, 100 mg/kg × 5 IP; one animal out of 5 died on day 8 before oxazolone application. As for the experimental part: as §6
Groups of 5 ICR derived male mice weighing 22±1 gms were used. The preshaved abdominal surface was sensitized by application of oxazolone 0.1 ml of 5% solution. Test substance of peptide at dose of 100 mg/kg and vehicle (saline) were administered into the mice intra peritoneally after one hour and daily for five consecutive doses. After additional four days, the animals were challenged by secondary application of oxazolone (0.025 ml of 5% solution) to the right ear. After a further 24 hours, each mouse was sacrificed and ear thickness measured with a Dyer Model micrometer gauge. A 30 percent or more (≧30%) decrease relative to the vehicle control group was considered significant and indicated possible immunosuppressant activity.

A word on the IC50: it is the concentration needed to halve the response being measured. For the substance Quinacrine [reference compound], the IC50 in series [1] is 120 µM.
With N-Me—OSuc-AAPV [reference compound], the IC50 in series [2] was 0.18 µM.
Take “HS—CH—R—CH(CH—CH(CH3)2—CO—Nal-Ala-NH [reference compound]”: the IC50 in series [3] came to 0.031 µM.
As to LEU-PRO-PRO-SER-ARG [Peptide], the “Died (mortality)” value in series [4] and in series [6] was “Died” throughout. The “Wt. gain, gm” value in series [5] (listed as natural peptide) is 5.8 gm.
Regarding “LEU-PRO-PRO-SER-ARG [synthetic peptide (crude 60%)]”, the “Wt. gain, gm” value in series [5] amounted to 5.9 gm.
